According to patent publication US5559213A, “Polyethylene-protein conjugates” (Hoffmann-La Roche Inc., priority 1995, dated 1996):

System: rIL-1alpha induction of interleukin-6
Test: Inhibition of rIL-1alpha induction of interleukin-6 in mice (pharmacodynamics)
Type: in vivo
Settings: Example 6; at 8 and 24 hours after administration
Method: The pharmacodynamics of IL-1ra protein was evaluated in vivo by the ability of the IL-1ra to inhibit rIL-1alpha induction of interleukin-6. Serum from mice treated with rIL-1alpha contain high levels of IL-6, [McIntosh et al., Immunol. 143: 162, (1989)]. The administration of unmodified IL-1ra together with IL-1alpha (0 hr time point) inhibits the induction of IL-6. This test system was used to compare the pharmacodynamic properties of unmodified and PEG IL-1ra. […] Three hours later, serum samples were collected. IL-6 levels (units) were determined using a modification of an IL-6 assay that has been previously described [Van Snick et al., Proc. Natl. Acad. Sci. USA 83:9679, (1986)]. In the IL.-6 assay, B9 hybridoma cells were treated with two fold serial dilutions of the test sera in 96-well microtiter plates. Following a 3 day incubation at 37° C. in a humidified atmosphere comprised of 5% CO2 and 95% air, the wells were pulsed with 0.5 uCi of tritiated thymidine and incubated for an additional 18 hr. The cells were then harvested onto glass fiber filters and the level of tritiated thymidine incorporation was determined by scintillation counting. IL-6 activity is expressed as U/ml. IL-6 units are defined as the inverse of the serum dilution which produces half-maximal tritiated thymidine incorporation compared to a reference standard.

B1: 26 kD IL-1ra (Example 6): IL-1ra conjugated to PEG with the reagent of Example 5; 26 kD column of Table D1 (conjugate, UniProt P18510 26-177, looked up)
Interleukin-1 receptor …: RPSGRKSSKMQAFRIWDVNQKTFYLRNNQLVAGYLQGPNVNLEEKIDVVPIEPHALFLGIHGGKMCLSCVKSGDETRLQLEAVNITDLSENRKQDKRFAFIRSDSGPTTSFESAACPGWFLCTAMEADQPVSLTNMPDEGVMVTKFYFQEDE
modifications: PEG conjugate
IL-6-inhibitory effect compared to unmodified IL-1ra: prolonged IL-6-inhibitory effect
